The list shows a part of the results, in another mix than the full data. Calls of active or inactive are those of the source. Rule as the data show it: active = activation above about 18%; inactive = the rest.
Each compound was assayed against Mu-type opioid receptor (Homo sapiens) + Delta-type opioid receptor (Homo sapiens) (UniProt P35372+P41143) (assay: inducers of mu-delta opioid receptor heterodimers – cell-based, luminescence, primary screen (AID 504326;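 also: 0% = vehicle-treated cells and 100% = reference agonist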)). Conditions: cells, OPRM1-OPRD1 heterodimerization, at 9.3 µM, stronger effect = higher value.

By UniProt entry, the sequences of proteins in these tests, tags left out.
UniProt P35372, whole entry, looked up: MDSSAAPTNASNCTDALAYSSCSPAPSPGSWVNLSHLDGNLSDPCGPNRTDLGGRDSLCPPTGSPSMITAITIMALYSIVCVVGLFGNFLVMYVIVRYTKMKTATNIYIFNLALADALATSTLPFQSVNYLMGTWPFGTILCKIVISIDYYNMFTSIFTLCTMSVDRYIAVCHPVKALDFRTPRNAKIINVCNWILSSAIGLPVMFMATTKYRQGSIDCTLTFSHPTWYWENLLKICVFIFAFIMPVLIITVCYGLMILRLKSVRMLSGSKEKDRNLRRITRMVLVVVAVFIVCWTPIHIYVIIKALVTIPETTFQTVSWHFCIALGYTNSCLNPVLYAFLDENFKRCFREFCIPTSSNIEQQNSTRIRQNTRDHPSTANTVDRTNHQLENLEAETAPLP
UniProt P41143, whole entry, looked up: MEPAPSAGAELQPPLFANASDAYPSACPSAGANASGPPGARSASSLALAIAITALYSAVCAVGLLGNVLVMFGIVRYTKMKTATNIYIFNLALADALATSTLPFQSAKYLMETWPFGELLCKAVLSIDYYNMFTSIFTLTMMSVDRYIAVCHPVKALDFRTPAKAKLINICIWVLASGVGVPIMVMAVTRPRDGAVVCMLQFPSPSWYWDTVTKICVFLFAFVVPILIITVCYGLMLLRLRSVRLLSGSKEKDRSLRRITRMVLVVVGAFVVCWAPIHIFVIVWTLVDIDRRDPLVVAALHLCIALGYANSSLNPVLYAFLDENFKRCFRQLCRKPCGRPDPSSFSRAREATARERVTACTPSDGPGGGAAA

Row | Compound | activation
1 | CC(C)C[C@H](NC(=O)N1CCn2c1nc1ccccc12)C(=O)NCc1ccccc1 | inactive: -2.02%
2 | Fc1ccc2c(c1)nnn2C1CCN(Cc2nnnn2CCc2ccccc2)CC1 | inactive: -1.76%
3 | CC(C)[C@H](NC(=O)N1CCn2c1nc1ccccc12)C(=O)NCc1ccc(F)cc1 | inactive: -0.08%
4 | COCC(=O)N(C)[C@H]1C[C@H]2c3cc(Oc4ccccc4C)ccc3CCN2C(=O)[C@H]1[C@H](C)O | inactive: -3.57%
5 | COCCN1CCn2c(nc3cc(NC(=O)Cn4nc(C)c5ccccc5c4=O)ccc32)C1 | inactive: -1.32%
6 | COc1ccc(CCNC(=O)[C@H](C)NC(=O)N2CCn3c2nc2ccccc23)cc1OC | inactive: -1.28%
7 | CC(=O)Nc1ccc([As](=O)(O)O)c(O)c1 | inactive: -3.55%
8 | O=S(=O)(c1ccc(F)cc1)N1CCn2c(nc3ccccc32)C1 | inactive: -1.46%
9 | CSCC[C@H](NC(=O)N1CCn2c1nc1ccccc12)C(=O)NC1CCCCC1 | inactive: -0.4%
10 | CC1=NNC(=O)C1CCC(=O)N/N=C/C=C/c1ccccc1 (stereo not drawn) | inactive: -3.54%
11 | CCOC(=O)c1ccc(NC(=O)C2CC(=O)Nc3nc4ccccc4n32)cc1 (stereo not drawn) | inactive: -1.65%
12 | CCC(C(=O)NC1CCCC1)n1c(SCc2cccc(C)c2)nc2ccncc21 (stereo not drawn) | inactive: 0.41%
13 | COc1ccc2c(c1)C1(Nc3ccccc3-c3nc4ccccc4n31)C(=O)N2 (stereo not drawn) | inactive: -1.5%
14 | Cn1c(=O)c2c(ncn2CC(=O)Nc2cc(S(=O)(=O)N3CCCCC3)ccc2Cl)n(C)c1=O | inactive: -1.11%
15 | CN1C(=O)CC(n2c(CO)nc3ccccc32)C1=O (stereo not drawn) | inactive: -0.93%
16 | O=C(CCNC(=O)N1CCn2c1nc1ccccc12)NCc1ccc(Cl)cc1 | inactive: -1.65%
17 | Cc1cc(NC(=O)CSc2nc3ccccc3n2CC(=O)N2CCC(C)CC2)no1 | inactive: -0.9%
18 | Cc1nc2cc(C(F)(F)F)ccc2n1C1CCN(Cc2nnnn2CCc2ccccc2)CC1 | inactive: -2.39%
19 | CC(=O)Nc1ccc(Oc2c([N+](=O)[O-])cc([N+](=O)[O-])cc2[N+](=O)[O-])cc1 | inactive: -2.92%
20 | CC(=O)c1ccc(N2CC2c2ccncc2)cc1 (stereo not drawn) | inactive: -3.79%
21 | N#C/C(=C\c1ccc(N(CCBr)CCBr)cc1)C(N)=O | inactive: -3.16%
22 | O=C(Cn1c(SCC(=O)N2CCCc3ccccc32)nc2ccccc21)N1CCCC1 | inactive: -2.7%

Row | Compound | activation
23 | Cc1ccc2c(c1)C1CN(C)CCC1N2S(=O)(=O)c1cccc(F)c1 (stereo not drawn) | inactive: -4.85%
24 | O=C(Cn1cnc2ccccc21)N/N=C/C(Br)=C/c1ccccc1 | inactive: 2.91%
25 | Cn1c(=O)c2c(ncn2CC(=O)N/N=C/C(Cl)=C/c2ccccc2)n(C)c1=O | inactive: -0.82%
26 | COC(=O)C1(C)COP(=O)(NCc2ccccc2)OC1 (stereo not drawn) | inactive: -3.24%
27 | CC(NC(=O)CCCCCNC(=O)N1CCn2c1nc1ccccc12)c1ccccc1 (stereo not drawn) | inactive: -0.74%
28 | Cc1ccc2c(c1)C1CN(C)CCC1N2C(=O)COc1ccc(N(C)S(=O)(=O)c2cccs2)cc1 (stereo not drawn) | inactive: -0.43%
29 | O=C(CCCCCNC(=O)N1CCn2c1nc1ccccc12)N[C@H](C(=O)O)c1ccccc1 | inactive: -3.42%
30 | COC(=O)c1ccccc1NC(=O)Cn1c(-c2nonc2N)nc2ccccc21 | inactive: -2.78%
31 | CC(C)(C)NC(=O)Cn1c(SCC(=O)Nc2nccs2)nc2ccccc21 | inactive: -2.29%
32 | Cc1ccccc1CN(C)C(=O)COC(=O)C(O)(c1ccccc1)c1ccccc1 | inactive: -1.41%
33 | Cc1ccc2c(c1)C1CN(C)CCC1N2C(=O)Nc1cccc(Cl)c1 (stereo not drawn) | inactive: 5.21%
34 | CCOc1ccc(S(=O)(=O)N(C)c2ccc(OCC(=O)N3c4ccc(C)cc4C4CN(C)CCC43)cc2)cc1 (stereo not drawn) | inactive: -0.88%
35 | Cc1ccccc1Oc1ccc2c(c1)[C@@H]1C[C@H](N(C)C(=O)Nc3cc(Cl)cc(Cl)c3)[C@H]([C@H](C)O)C(=O)N1CC2 | inactive: -3.08%
36 | CN(C)CCn1c(N)nc2ccccc21 | inactive: 1.04%
37 | CN(C)C(=O)CSc1nc2ccccc2n1CC(=O)N1CCN(c2ccccc2)CC1 | inactive: -0.96%
38 | C[C@H]1OP(=O)(Oc2ccccc2)C[C@@H]2O[C@@H]21 (stereo partly drawn) | inactive: -0.37%
39 | CCC(=O)Nc1nc2ccccc2n1CCN(C)C | inactive: -1.23%
40 | Cc1ccc2c(c1)C1CN(C)CCC1N2Sc1ccccc1[N+](=O)[O-] (stereo not drawn) | inactive: 0.81%
41 | C[C@@H]1C=CCP(=O)(Oc2ccccc2)O1 (stereo partly drawn) | inactive: -1.02%
42 | C[C@H](O)[C@@H]1C(=O)N2CCc3ccc(-c4ccccc4)cc3[C@@H]2C[C@@H]1N(C)C(=O)c1ccc(C#N)cc1 | inactive: -1.3%
43 | O=C(CCNC(=O)N1CCn2c1nc1ccccc12)NCc1ccccc1Cl | inactive: -3.3%
44 | CCc1cc(O)c([N+](=O)[O-])c(C)c1[N+](=O)[O-] | inactive: -2.98%

Row | Compound | activation
45 | CCOC(=O)c1ccc(NC(=O)Cn2c(-c3nonc3N)nc3ccccc32)cc1 | inactive: 12.2%
46 | CSc1nc2ccccc2n1CC(=O)Nc1c(C)n(C)n(-c2ccccc2)c1=O | inactive: 1.2%
47 | Cc1ccc2c(c1)C1C[N+](C)(CC(=O)c3ccccc3)CCC1N2C(=O)c1ccccc1Cl (stereo not drawn) | inactive: 0.63%
48 | CC(/C=C/c1ccccc1)=N/NC(=O)CCC(=O)Nc1ccccc1C | inactive: -0.93%
49 | COc1cccc(C(=O)CSc2nc3ccccc3n2CC(=O)N2CCOCC2)c1 | inactive: -3.15%
50 | O=C(Cn1c(-c2cncs2)nc2ccccc21)NCCc1ccccc1 | inactive: -0.82%
51 | O=C(Cn1c(CO)nc2ccccc21)Nc1ccccc1Cl | inactive: -1.17%
52 | COc1ccc(Cl)cc1NC(=O)CN(C)C(=O)Cn1cnc2c1c(=O)n(C)c(=O)n2C | inactive: -0.27%
53 | CC(C)(C)C(=O)NC(Sc1ccccc1)C(Cl)(Cl)Cl (stereo not drawn) | inactive: 4.79%
54 | COc1ccc(/C=N/NC(=O)Cn2cnc3c2c(=O)n(C)c(=O)n3C)cc1 | inactive: -3.37%
55 | COC(=O)C1=C(Cn2cnc3ccccc32)NC(=O)NC1c1cc(C)ccc1C (stereo not drawn) | inactive: -0.43%
56 | c1ccc(CN2CCC(Nc3nc(-c4cccnc4)nc4ccccc34)CC2)cc1 | inactive: -1.64%
57 | C[C@H](NC(=O)N1CCn2c1nc1ccccc12)C(=O)N1CCCCC1 | inactive: -2.86%
58 | CCc1cccc(CC)c1N(COC)C(=O)Cn1c(CO)nc2ccccc21 | inactive: -4.1%
59 | CCOC(=O)CC[C@H](NC(=O)Cn1cnc2c(SC)nc(N)nc21)C(=O)OCC | inactive: -3.24%
60 | CSc1nc2ccccc2n1CC(=O)Nc1ccc(C)c(C)c1 | inactive: -0.6%
61 | CC(C)(C)NC(=O)Cn1c(SCC(N)=O)nc2ccccc21 | inactive: -1.82%
62 | O=C(Cn1c(NCCO)nc2ccccc21)Nc1ccc2c(c1)OCCCO2 | inactive: -0.22%
63 | CC(C)CCNC(=O)CC1C(=O)N(Cc2ccccc2)C(C)c2nc3ccccc3n21 (stereo not drawn) | inactive: -2.17%
64 | N#Cc1cccc(NC(=O)Cn2c3[n+](c4ccc(C(F)(F)F)cc42)CCCCC3)c1 | inactive: -2.38%
65 | Cc1ccc2c(c1)C1CN(C)CCC1N2C(=O)COc1ccc(N(C)C(=O)c2ccccc2)cc1 (stereo not drawn) | inactive: -2.31%
66 | N=c1n(CCCOc2ccccc2Cl)c2ccccc2n1CC(N)=O | inactive: -3.69%

Row | Compound | activation
67 | CC1CN(C(=O)Cn2cnc3c2c(=O)n(C)c(=O)n3C)CC(C)O1 (stereo not drawn) | inactive: -2%
68 | C[C@H](NC(=O)N1CCn2c1nc1ccccc12)C(=O)NCc1ccccc1 | inactive: -0.52%
69 | COc1cccc(CNC(=O)[C@H](CCSC)NC(=O)N2CCn3c2nc2ccccc23)c1 | inactive: -2.79%
70 | Cc1nc2ccccc2n1CC(=O)N1CC(=O)Nc2ccccc21 | inactive: 4.59%
71 | COC(=O)c1ccc(CNC(=O)Cn2cnc3c(NCc4ccccc4)ncnc32)cc1 | inactive: -0.42%
72 | O=P1(Nc2nc3ccc(Cl)cc3s2)COc2ccccc2O1 (stereo not drawn) | inactive: -0.91%
73 | CCn1c(=O)c2c(nc3n2CCN3c2ccccc2)n(C)c1=O | inactive: -1.5%
74 | O=C(Cn1cnc2c(OCc3ccccc3)ncnc21)NCc1ccccc1 | inactive: -4.9%
75 | COCCNC(=O)Cn1cnc2c1c(=O)n(C)c(=O)n2C | inactive: -2.69%
76 | CCOc1ccc(C2=NCC(CBr)S2)cc1 (stereo not drawn) | inactive: -2.95%
77 | COCCN1CCn2c(nc3cc(NC(C)=O)ccc32)C1 | inactive: -1.33%
78 | COCCNC(=O)Cn1c(=O)n(C)c2ccccc21 | inactive: -1.3%
79 | Cn1c(=O)c2c(ncn2CC(=O)N2CCN(c3ccccc3)CC2)n(C)c1=O | inactive: -2.25%
80 | C[C@H](O)[C@@H]1C(=O)N2CCc3ccc(-c4cccc(F)c4)cc3[C@@H]2C[C@@H]1N(C)C(=O)Nc1ccccc1 | inactive: 1.86%
81 | COCCN1CCn2c(nc3cc(Nc4nnc(C)c5ccccc45)ccc32)C1 | inactive: -3.33%
82 | CCc1cccc(C)c1N(C(=O)Cn1c(CO)nc2ccccc21)C(C)COC (stereo not drawn) | inactive: -1.24%
83 | CC(NC(=O)COC(=O)C(O)(c1ccccc1)c1ccccc1)c1ccccc1 (stereo not drawn) | inactive: 0.76%
84 | CC1CCCN(C(=O)Cn2cnc3c2c(=O)n(C)c(=O)n3C)C1 (stereo not drawn) | inactive: -3.04%
85 | Cc1ccc(CNC(=O)Cn2cnc3c(NC(=O)OCc4ccccc4)ncnc32)o1 | inactive: -2.75%
86 | CCOC(=O)C1=C(Cn2cnc3ccccc32)NC(=O)NC1c1ccc(Cl)cc1 (stereo not drawn) | inactive: -0.44%
87 | Cc1ccccc1OP(=O)(Nc1ccccn1)Oc1ccccc1C | inactive: -0.23%
88 | O=c1c2cc([N+](=O)[O-])ccc2[nH]c2c([N+](=O)[O-])cc([N+](=O)[O-])cc12 | inactive: 2.11%

Source: PubChem BioAssay AID504326 (The Scripps Research Institute Molecular Screening Center, 2011)
